System: HEK-OX1R cells
Assay: Inhibition of HEK-OX1R cell growth (cell counting)
Type: cell-based
Settings: 0.1 μM, 48 h; untreated cells = 0% inhibition

Row | Substance | Inhibition of cell growth, % [%]
1 | Cetux « clicked » | 52
2 | Cetuximab [reference compound] | 30
